Earlier results as cited in publication PMC8329336, “The Role of Co-Signaling Molecules in Psoriasis and Their Implications for Targeted Treatment” (Frontiers in Pharmacology, 2021).
Where two headings read alike, the source gives them in different places.

How the values were obtained:
CD80, CD86 [1] = test system: CD80, CD86; parameters: method as in Mease et al., 2011; Iannone and Lapadula, 2012; conditions: ref Mease et al., 2011; Iannone and Lapadula, 2012
CD80 and CD86 = test system: CD80 and CD86; parameters: method as in Zizzo et al., 2018; conditions: compared with CD28; ref Zizzo et al., 2018
CD80, CD86 [2] = test system: CD80, CD86; parameters: method as in Mease et al., 2011, 2017; Strand et al., 2018; conditions: Phase III, ref Mease et al., 2011, 2017, Strand et al., 2018; for improvement in PsA (patient-reported outcomes): patients with active PsA
CD80, CD86 [3] = test system: CD80, CD86
CD80, CD86 [4] = test system: CD80, CD86; parameters: method as in Abrams et al., 1999; Abrams et al., 2000; conditions: Phase I clinical trials, ref Abrams et al., 1999, 2000
human B cells = test system: human B cells; parameters: method as in Lorenzetti et al., 2019; conditions: ref Lorenzetti et al., 2019
[5] = listed as Abatacept (CTLA-4 Ig)

Abatacept: soluble, fully human fusion protein: extracellular domain of CTLA-4 linked to the Fc portion of human IgG1
usefulness in the therapy of cutaneous psoriasis (CD80, CD86 [1]): less useful | value for the treatment of PsA (CD80, CD86 [1]): valuable | affinity for CD80 and CD86 on APCs (CD80 and CD86): much higher affinity compared with CD28 | improvement in PsA (patient-reported outcomes) (CD80, CD86 [2]): significantly improved | improvement in PsA (patient-reported outcomes) (CD80, CD86 [2]; [5]): significant improvement | impact on psoriasis (skin) lesions (CD80, CD86 [2]): only a modest benefit | impact on psoriasis (skin) lesions (CD80, CD86 [2]; [5]): Modest impact | overall risk of infections, malignancies or autoimmune diseases (CD80, CD86 [3]; in vivo): did not lead to an overall increased risk | safety and tolerability (CD80, CD86 [3]; ref Ozen et al., 2019): safe and well-tolerated | clinical improvement and cytopathological reversal of psoriatic plaques (CD80, CD86 [4]): in a dose-dependent manner | CD80 and CD86 expression and memory formation (human B cells): directly modulate
